Measured affinities in a library of Ab-14 heavy chain variants

The target is the same throughout: PDVDLGDISGINAS, from the HR2 region of SARS-CoV-2 spike.

Parent scFv Ab-14: VH joined to VL by a (GGGGS)3 linker. Changes lie in the heavy chain CDRs alone.
VH: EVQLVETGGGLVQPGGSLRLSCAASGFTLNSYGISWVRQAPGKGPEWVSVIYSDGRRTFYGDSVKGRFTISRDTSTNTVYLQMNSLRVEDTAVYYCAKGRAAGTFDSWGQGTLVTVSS
VL: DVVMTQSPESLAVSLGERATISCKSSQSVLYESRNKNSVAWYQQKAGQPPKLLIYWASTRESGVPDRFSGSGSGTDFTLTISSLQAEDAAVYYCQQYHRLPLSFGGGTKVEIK

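Phage display of a naive human antibody library on the peptide gave the parent. Designed CDR sequences, proposed from the first random library and measured here. Their group label is 14H_En_HC (En: ensemble of fine-tuned language models; HC: hill climbing; a sequence that several methods proposed may carry one label only). AlphaSeq pools MATa yeast showing the antibodies with MATalpha yeast showing the peptide. Mating (16 h, 30 °C) was followed by selection of diploids and sequencing of their barcodes. A regression on co-assayed BCL2-family reference pairs converts the normalised counts of each replicate to an apparent Kd. The assay was run in six technical replicates.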

Each variant is given by its three heavy chain CDRs, as the data file delimits them; those of the parent are GFTLNSYGIS, VIYSDGRRTFYGDSVK, GRAAGTFDS. The read-out is the apparent dissociation constant on a log10 scale (nM): the lower, the stronger. A mean of the replicates is given; it leaves out those without a signal. A pair that was not seen in that replicate is written "n.d."; this usually means weak binding, but a binder can also be missed.

CDR-H1 | CDR-H2 | CDR-H3 | log10 Kd, replicates | mean log10 Kd (nM) | empty controls
GFDLNEYGIS | VIYADGKRTFYSDSVK | GTAGGTFDI | 0.17 0.07 0.07 -0.22 -0.25 0.55 | 0.06 | 0/18
GFDLNEYGIS | VIYADGRRTQYIDSVK | GETAGTFDT | -0.26 -0.68 -0.75 -0.60 -0.98 -0.09 | -0.56 | 0/18
GFNLDEYGIS | VIYADGRRTFYADSVK | GGAAGTFDV | -0.15 -0.36 -0.49 -0.62 -0.40 -0.39 | -0.40 | 1/18 (1.68)
GFNLNEYGIS | VIYADGRRTFYADSVK | GEQAGTFDV | 0.07 0.00 0.21 -0.29 -0.11 0.16 | 0.01 | 0/18
GFDLNEYGIS | VIYADGRRTAYADSVK | GANAGTFDQ | -1.26 -0.76 -0.87 -1.55 -0.75 -1.18 | -1.06 | 0/18
GFDLNEYGIS | VIYADGLRTSYQDSVK | GQLAGTFDQ | -0.17 -0.50 -0.56 -0.76 -0.62 -0.23 | -0.47 | 0/18
GFDLNEYGIS | VIYADGRRTSYVDSVK | GEAAGTFDV | 0.64 1.17 0.93 0.93 0.44 0.69 | 0.80 | 1/18 (1.90)
GFDLEDYGIS | VIYADGRRTAYIDSVK | GEAAGTFDV | 0.63 1.67 0.46 1.81 0.46 0.80 | 0.97 | 0/18
GFQLDEYGIS | VIYADGMRTFYQDSVK | GEVAGTFDV | 1.35 1.13 1.70 1.07 1.53 2.57 | 1.56 | 1/18 (2.00)
GFDLNEYGIS | VIYADGVRTFYADSVK | GNAAGTFNV | -0.18 -0.30 -0.54 -0.49 -0.46 -0.04 | -0.34 | 0/18
GFDLNEYGIS | VIYADGRRTFYVDSVK | GTAAGTFDQ | -0.15 -0.53 -0.70 -0.64 -0.56 -0.39 | -0.49 | 0/18
GFDLNEYGIS | VIYADGMRTFYTDSVK | GEFAGTFDQ | -0.73 -0.33 -0.76 -0.63 -0.50 -0.85 | -0.63 | 1/18 (2.33)
GFDLNEYGIS | VIYADGMRTFYADSVK | GNLAGTFDF | -0.20 -0.42 -0.42 -0.74 -0.41 -0.56 | -0.46 | 0/18
GFNLNEYGIS | VIYADGQRTFYADSVK | GQQAGTFDM | 1.81 0.70 0.52 0.46 0.58 1.09 | 0.86 | 1/18 (1.93)
GFDLNEYGIS | VIYADGKRTFYADSVK | GNQAGTFDL | -0.50 -0.92 -0.69 -0.90 -0.88 -0.15 | -0.67 | 1/18 (0.57)
GFDLDEYGIS | VIYADGRRTFYADSVK | GEAAGTFDT | 0.03 -0.23 -0.30 -0.42 -0.21 -0.30 | -0.24 | 0/18
GFDLNEYGIS | VIYADGKRTFYSDSVK | GNVGGTFDS | 0.44 0.51 0.56 0.19 0.23 0.23 | 0.36 | 1/18 (1.74)
GFDLDEYGIS | VIYADGRRTFYADSVK | GQNAGTFDI | -0.25 -0.34 -0.61 -0.73 -0.55 -0.23 | -0.45 | 0/18
GFDLESYGIS | VIYADGSRTAYADSVK | GNVAGTFNQ | -0.25 -0.08 -0.26 -0.22 -0.40 -0.34 | -0.26 | 3/18 (2.18)
GFDLNEYGIS | VIYADGRRTAYADSVK | GEAGGTFDS | 0.01 -0.18 -0.12 0.17 -0.10 0.09 | -0.02 | 1/18 (2.35)
GFDIDEYGIS | VIYADGMRTFYTDSVK | GENAGTFDA | -0.47 -0.31 -1.35 -1.07 -0.69 0.04 | -0.64 | 0/18
GFNLNEYGIS | VIYADGMRTFYSDSVK | GENAGTFDV | -0.15 -0.45 -0.53 -0.68 -0.63 -0.09 | -0.42 | 0/18
GFDLNEYGIS | VIYADGRRTFYTDSVK | GNLAGTFLV | -0.06 -0.12 -0.37 -0.28 -0.16 -0.27 | -0.21 | 0/18
GFDLEEYGIS | VIYADGRRTFYSDSVK | GQTAGTFDL | -0.87 -0.83 -0.83 -0.62 -1.11 -0.55 | -0.80 | 0/18
GFDLDEYGIS | VIYADGRRTFYADSVK | GQNAGTFDQ | 0.41 0.17 0.56 0.24 0.31 -0.79 | 0.15 | 0/18
GFNLDEYGIS | VIYADGRRTFYSNSVK | GEAAGTFDV | -0.49 -0.68 -0.54 -0.83 -0.73 -0.38 | -0.61 | 0/18
GFDLNEYGIS | VIYADGRRTFYADSVK | GGEAGTFNM | 0.02 -0.21 -0.19 -0.47 -0.31 -0.10 | -0.21 | 0/18
GFDLNEYGIS | VIYADGKRTFYADSVK | GTAAGTFDQ | 0.57 0.72 0.74 0.68 1.20 0.89 | 0.80 | 0/18
GFDLEEYGIS | VIYADGTRTAYADSVK | GNVAGTFDS | -0.51 -0.18 -0.46 -0.31 0.34 0.59 | -0.09 | 0/18
GFNLDEYGIS | VIYADGRRTFYADSVK | GGNAGTFDV | n.d. n.d. n.d. n.d. n.d. n.d. | n.d. | 0/18

Picked from the list: the 4 lowest averages where every replicate gave a value.

CDR-H1	CDR-H2	CDR-H3	log10 Kd, replicates	mean log10 Kd (nM)	empty controls
GFDLNEYGIS	VIYADGRRTAYADSVK	GANAGTFDQ	-1.26 -0.76 -0.87 -1.55 -0.75 -1.18	-1.06	0/18
GFDLEEYGIS	VIYADGRRTFYSDSVK	GQTAGTFDL	-0.87 -0.83 -0.83 -0.62 -1.11 -0.55	-0.80	0/18
GFDLNEYGIS	VIYADGKRTFYADSVK	GNQAGTFDL	-0.50 -0.92 -0.69 -0.90 -0.88 -0.15	-0.67	1/18 (0.57)
GFDIDEYGIS	VIYADGMRTFYTDSVK	GENAGTFDA	-0.47 -0.31 -1.35 -1.07 -0.69 0.04	-0.64	0/18

The authors averaged sequences with at least three values out of six and counted those with two or fewer as poor binders. Nonspecific signal, from three strains lacking the peptide, appeared in 1% of pairings of all heavy chain designs, centred on 2.08 (5% of these signals below 0.84); values are not corrected for it. The control count says in how many pairings with the empty strains this scFv gave a signal, with their mean in brackets. The range of this assay differs from that of the first round, and the authors advise against merging the two.

Data: MIT Lincoln Laboratory AlphaSeq set, Li et al. 2023, doi:10.1038/s41467-023-39022-2, as distributed in FLAb.